Tested on: MDCKII-MDR1 cells
Conditions: apical-to-basal, 2 h

fluorescein isothiocyanate–dextran [FD4, reference compound]
Papp AP: 0.47 ± 0.15 ×10^−5cm/s

Source: paper PMC10610214 (Pharmaceuticals, 2023)
